Literature values, collected in patent publication US20230023414A1, “METHODS AND DEVICES FOR TREATING A DISEASE WITH BIOTHERAPEUTICS” (PROGENITY, INC., priority 2018, published 2023).

Conditions: cited from earlier work

dalteparin
stability in commercial off-the-shelf syringes: 30 days
